{"sequences": {"note": "Protein sequences, listed by entry. Tags and fused reporters are not part of them.", "UniProt Q16539, whole entry": "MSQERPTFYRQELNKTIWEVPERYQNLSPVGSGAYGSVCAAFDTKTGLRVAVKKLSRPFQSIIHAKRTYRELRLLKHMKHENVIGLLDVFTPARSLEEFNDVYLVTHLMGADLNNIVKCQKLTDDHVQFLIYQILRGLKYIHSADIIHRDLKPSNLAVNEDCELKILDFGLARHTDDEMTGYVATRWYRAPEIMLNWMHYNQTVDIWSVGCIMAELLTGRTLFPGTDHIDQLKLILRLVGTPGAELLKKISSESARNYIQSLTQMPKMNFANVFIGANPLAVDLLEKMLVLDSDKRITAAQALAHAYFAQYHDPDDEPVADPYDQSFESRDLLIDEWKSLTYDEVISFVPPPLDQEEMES"}, "source": "patent US20050272770A1", "about": "“Compositions and treatments for inhibiting kinase and/or HMG-CoA reductase” (priority 2004, published 2005)", "biological_target": "T1, human recombinant p38α protein kinase (Homo sapiens, UniProt Q16539)", "T1 construct": "purchased UBI 14-251; host or cells: E. coli", "assay": "Human p38α MAP kinase inhibition assay (cell-free, phosphorylation of myelin basic protein)", "format": "biochemical", "details": "inhibition of phosphorylation of myelin basic protein by recombinant human p38α MAP kinase by 50%, Table III; read-out: IC50 p38α MAPK", "description": "In vitro cell-free p38α MAP kinase inhibition assays were conducted by the method as described in Clerk et al., FEBS Lett., 426:93-96 (1998) for a number of lactones in formulas I/IIa/IIb. Briefly, human recombinant p38α protein kinase expressed in E. coli (UBI #14-251) was used. Myelin basic protein (MBP, UBI #13-110) was employed as substrate, and microtiter plate wells were coated with MBP (0.01 mg/ml) overnight at 4° C. Candidate compound and/or vehicle was preincubated with 0.075 μg/mL enzyme in modified HEPES buffer pH 7.4 at 25° C. for 15 minutes. The reaction was initiated by addition of 100 μM ATP and allowed to proceed for another 60 minutes. The reaction was terminated by aspirating the solution. Phosphorylated MBP was detected by incubation with a mouse monoclonal IgG2a anti-phosphoMBP antibody. Bound anti-phosphoMBP antibody was quantitated by incubation with a HRP conjugated goat anti-mouse IgG.", "data": [{"smiles": "O=C(O)C[C@H](O)C[C@H](O)CCc1c(-c2ccccc2)nn(-c2ccnc(Nc3ccccc3)n2)c1-c1ccccc1", "note": "[Example 11c, (3R,5R)-7-(3,5-diphenyl-1-(2-(phenylamino)pyrimidin-4-yl)-1H-pyrazol-4-yl)-3,5-dihydroxyheptanoic acid]", "values": [{"measurement": "IC50", "value": 32, "unit": "µM"}]}]}
